In patent US20200407467:

Tests used:
[1] = test system: CCNI2 peptide 46-135 (human library)
[2] = test system: CCDC86 peptide 136-225 (human library)
[3] = test system: LOC100287196 peptide 181-270 (human library)
[4] = test system: MTIF2 peptide 91-180 (human library)
[5] = test system: MED13L peptide 991-1080 (human library)
[6] = test system: NOL7 peptide 1-90 (human library)
[7] = test system: TNNT2 peptide 1-90 (human library, SEQ ID NO: 34)
[8] = test system: NSMCE3 peptide 1-90 (human library)
[9] = test system: SIPA1L2 peptide 1531-1620 (human library)
[10] = test system: SLAIN2 peptide 46-135 (human library)
[11] = test system: ZSCAN10 peptide 46-135 (human library)
[12] = test system: LOC100290422 peptide 181-270 (human library)
[13] = test system: TNNT2 peptide 1-90 (human library, SEQ ID NO: 27)
[14] = test system: PDLIM2 peptide 181-270 (human library)
[15] = test system: GPALPP1 peptide 181-270 (human library)
[16] = test system: ABL2 peptide 1-90 (human library)
[17] = test system: NUP35 peptide 46-135 (human library)
[18] = test system: PCDH20 peptide 91-180 (human library)
[19] = test system: TNNT2 peptide 46-135 (human library, SEQ ID NO: 26)
[20] = test system: TNNT2 peptide 1-90 (human library, SEQ ID NO: 45)

Thrombin
Thrombi Fold Change [1]: 11 fold | Thrombi Fold Change [2]: 10.9 fold | Thrombi Fold Change [3]: 10.7 fold | Thrombi Fold Change [4]: 12.3 fold | Thrombi Fold Change [5]: 10.8 fold | Thrombi Fold Change [6]: 15.1 fold | Thrombi Fold Change [7]: 11.6 fold | Thrombi Fold Change [8]: 12.5 fold | Thrombi Fold Change [9]: 14.3 fold | Thrombi Fold Change [10]: 11.1 fold | Thrombi Fold Change [11]: 10.9 fold | Thrombi Fold Change [12]: 15.4 fold | Thrombi Fold Change [13]: 17.7 fold | Thrombi Fold Change [14]: 10.8 fold | Thrombi Fold Change [15]: 11.2 fold | Thrombi Fold Change [16]: 11.2 fold | Thrombi Fold Change [17]: 12.1 fold | Thrombi Fold Change [18]: 11.5 fold | Thrombi Fold Change [19]: 19.1 fold | Thrombi Fold Change [20]: 10.4 fold
